Source: PubChem
In the library only some 1.5% were active in any assay of this set; here they are far more common.
Pemphigus Ab inh: inhibitors of pemphigus antibody binding to human desmoglein-3; P32926; DSG3-coupled beads, scFv-anti-DSG3-GFP binding, flow cytometry; hits give low values; binding (percent of control), % at 10 µM; actives 0.48% (n = 310,000);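 active = binding more than 3 SD below its plate's average and above zero; inconclusive = below that plate limit but binding exactly zero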;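 note: hits lower antibody fragment binding to DSG3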
UUG fidelity: modulators of yeast start codon fidelity, primary screen, whole organism, S. cerevisiae, single point, plate reader; S. cerevisiae UUG-firefly luciferase reporter, luminescence/redox ratio; activity score, % at 18.7 µM; 0.13% of 350,000 active; AID 602363, 2012;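 active = replicate mean at a twofold rise or more, about +100% in these data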;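 also: firefly luciferase made from a UUG start codon reports start codon fidelity; reporter light over untreated wells divided by growth signal over untreated wells; some hits fall short of that in this replicate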
PABP polyA inh: blocks human PABP binding to poly(A) RNA | P11940 | fluorescence polarization | calls only at 35 µM | actives 1% (n = 290,000) | AID 2014;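 note: calls also rest on retests at 20 µM and on dose response follow-up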
eIF4H FP inh: inhibitors of RNA binding by human eIF4H; Q15056; actives 0.94% (n = 290,000); inhibition, % at 35 µM; eIF4H fluorescence polarization binding assay;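 note: calls also rest on retests at 20 µM and on dose response follow-up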
PABP1 MLLE inh: blocks PAM2 peptide binding to the PABP1 MLLE domain; GST-MLLE / FITC-PAM2 fluorescence polarization; inhibition, % at 20 µM; actives 0.36% (n = 360,000); AID 588489; in the data active = inhibition above about 35%, passing the limit was not always enough;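 note: plate controls were DMSO wells with GST-MLLE for no effect and wells lacking GST-MLLE protein for full effect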
* = called active by the depositor; i = inactive; ? = inconclusive; . = not tested or not shown; + = active, no number. Unless noted, the rule behind the calls is not given here.

SMILES | Pemphigus Ab inh | UUG fidelity | PABP polyA inh | eIF4H FP inh | PABP1 MLLE inh
COc1ccc(CNC(=O)C(C)NCc2ccc(S(N)(=O)=O)cc2)cc1 (configuration not stated) | 105.5 | -21.5 | i | -6.9 | -12.6
COc1ccc(CNc2ccc(S(N)(=O)=O)cc2)cc1 | 104.7 | . | i | 0.8 | 56.9*
COC/C=C/C1=CC2=CC(=O)C(C)(OC(=O)c3cnc4ccccc4n3)C(=O)C2=CN1c1ccc(CO)cc1 (configuration not stated) | . | . | + | 102.4* | .
COC/C=C/C1=CC2=CC(=O)C(C)(OC(=O)c3cnc4ccccc4n3)C(=O)C2=CN1CC(C)C (configuration not stated) | 100.4 | -22.1 | . | . | 10.8
COC/C=C/C1=CC2=CC(=O)C(C)(OC(=O)c3cnc4ccccc4n3)C(=O)C2=CN1c1ccccc1 (configuration not stated) | . | . | + | 62.8* | .
O=c1cccccc1NN=C1CCCCC1 | 117.0 | -23.1 | + | 81.7* | -15.7
O=C(O)c1cc(Br)ccc1NN=C1CCCCC1 | 99.2 | . | i | 7.5 | 22.2
O=c1cccccc1NN=C1CCCCCC1 | . | . | + | 59.3* | 18.1
C[C@H](CO)N1C[C@H](C)[C@@H](CN(C)Cc2ccncc2)Oc2ncc(C#Cc3ccncc3)cc2C1=O | . | 3.3 | . | . | .
Cc1ccc(S(=O)(=O)NCc2ccc(C(=O)N3CCCC3)cc2)cc1 | 115.6 | -0.1 | + | 6.8* | -1.5
O=C(O)c1cccc(N2C(=O)C=CC2=O)c1 | 101.3 | -14.9 | . | . | 30.7
O=C1C=CC(=O)N1c1ccccn1 | 89.8 | -2.5 | . | . | 35.8
O=C(c1ccccc1)c1ccccc1N1C(=O)C=CC1=O | . | . | i | -11.0 | 39.2*
O=C1C=CC(=O)N1c1ccccc1N1C(=O)C=CC1=O | 77.6 | -20.0 | . | . | 44.0*
O=C(C[C@@H]1CC[C@H](NC(=O)C2CC2)[C@@H](CO)O1)Nc1nccs1 | . | -22.5 | . | . | .
C=CCNC(=S)N/N=C(\C)c1cccc(OC)c1 | 88.2 | -29.4 | i | -6.8 | 39.8*
C/C(=N\NC(=S)NCCc1ccccc1)c1cccc(Br)c1 | 107.7 | -25.8 | i | -9.2 | 39.5*
C=CCNC(=S)N/N=C(\C)c1ccc(OC)cc1 | 106.3 | . | i | 8.5 | 18.5
Cc1ccc(S(=O)(=O)Nc2cccc3c2O[C@H](CN(C)Cc2ccc(C(F)(F)F)cc2)[C@@H](C)CN([C@@H](C)CO)C3=O)cc1 | . | 21.5 | . | . | .
C[C@@H]1CN([C@@H](C)CO)C(=O)Cc2cc(NC(=O)Nc3cccc4ccccc34)ccc2O[C@@H]1CN(C)S(=O)(=O)c1ccccc1 | . | -14.1 | . | . | .
CCN(CC(=O)Nc1c(F)cccc1F)C(=O)c1ccc2ccccc2n1 | 110.9 | . | . | . | -0.6
CCN(CC(=O)Nc1c(F)cccc1F)C(=O)/C=C/c1ccc2ccccc2n1 | 76.8* | -10.9 | . | . | -4.3
O=C(N[C@H]1CC[C@H](CCn2cc(C3(O)CCCC3)nn2)O[C@@H]1CO)C1CCOCC1 | . | -7.6 | . | . | .
COc1ccc(NC(=O)Nc2ccc3c(c2)CC(=O)N([C@@H](C)CO)C[C@@H](C)[C@H](CN(C)C)O3)cc1 | . | 17.9 | . | . | .
COc1ccccc1NS(=O)(=O)c1cccc(NC(=O)c2cc3ccccc3oc2=O)c1 | 78.2* | . | i | -1.0 | 0.2
Cc1ccc(NC(=O)c2cc3ccccc3oc2=O)cc1S(=O)(=O)N(C)C | . | . | + | 0.1 | 4.5
Cc1ccc(N2C(=O)[C@@H]3[C@H](C2=O)C2c4ccccc4C=CN2[C@@H]3C(=O)c2ccco2)cc1 (some centres not stated) | 108.3 | -4.5 | i | 30.8 | 36.8*
CC(=O)[C@@H]1[C@@H]2C(=O)N(Cc3ccccc3)C(=O)[C@@H]2C2c3ccccc3C=CN21 (some centres not stated) | 97.2 | . | + | 95.9* | 53.3
COc1ccccc1NC(=S)NC(=O)C1CC1 | 88.5 | -22.0 | i | -5.1 | 19.7
O=C(NC(=S)Nc1ccccc1Cl)C1CC1 | 98.8 | -17.9 | i | 2.3 | 40.9*

Structural class, those above with bromine.
SMILES | Pemphigus Ab inh | UUG fidelity | PABP polyA inh | eIF4H FP inh | PABP1 MLLE inh
O=C(O)c1cc(Br)ccc1NN=C1CCCCC1 | 99.2 | . | i | 7.5 | 22.2
C/C(=N\NC(=S)NCCc1ccccc1)c1cccc(Br)c1 | 107.7 | -25.8 | i | -9.2 | 39.5*

Next section.
SMILES | Pemphigus Ab inh | UUG fidelity | PABP polyA inh | eIF4H FP inh | PABP1 MLLE inh
O=C(NC(=S)Nc1ccccc1O)c1ccccc1Cl | 103.0 | . | i | 0.8 | 43.9*
COc1cc(/C=N/NC(=O)c2cc(-c3c(C)nn(-c4ccccc4)c3C)n[nH]2)ccc1O | 99.2 | -20.0 | i | -3.5 | -7.9
Cc1nn(-c2ccccc2)c(C)c1-c1cc(C(=O)N/N=C/c2ccc(O)cc2)[nH]n1 | 58.4* | . | i | -0.7 | 0.2
Cc1nn(-c2ccccc2)c(C)c1/C=N/NC(=O)c1cc(-c2ccc(Br)s2)[nH]n1 | 84.3* | 19.9 | i | -8.2 | 4.8
Cc1ccc(-c2cc(C(=O)N/N=C/c3ccco3)n[nH]2)s1 | 100.0 | -20.5 | + | 93.7* | 0.9
CN1CCN(C(=O)C[C@H]2CC[C@@H]3[C@H](COC[C@@H](O)CN3Cc3ccc(Oc4ccccc4)cc3)O2)CC1 | . | -8.9 | . | . | .
CC(C)NC(=O)N(C)C[C@H]1Oc2cc(C#CCN(C)C)ccc2S(=O)(=O)N([C@H](C)CO)C[C@@H]1C | . | 8.6 | . | . | .
C[C@@H]1CCCCO[C@H](CN(C)C(=O)CCCN(C)C)[C@@H](C)CN([C@H](C)CO)C(=O)c2cc(NC(=O)Nc3ccc(F)cc3)ccc2O1 | . | -7.1 | . | . | .
CSc1ccc(C2=C/C(=C3/SC(=S)NC3=O)c3ccccc3O2)cc1 | 80.7* | -5.2 | . | . | -8.2
Cc1cccc(S(=O)(=O)N(C)C[C@@H]2OCc3ccccc3-c3ccccc3C(=O)N([C@H](C)CO)C[C@@H]2C)c1 | . | 10.7 | . | . | .

Some of these compounds in order of SMILES length, rising.
SMILES | Pemphigus Ab inh | UUG fidelity | PABP polyA inh | eIF4H FP inh | PABP1 MLLE inh
Cc1ccc(-c2cc(C(=O)N/N=C/c3ccco3)n[nH]2)s1 | 100.0 | -20.5 | + | 93.7* | 0.9
Cc1nn(-c2ccccc2)c(C)c1/C=N/NC(=O)c1cc(-c2ccc(Br)s2)[nH]n1 | 84.3* | 19.9 | i | -8.2 | 4.8
CN1CCN(C(=O)C[C@H]2CC[C@@H]3[C@H](COC[C@@H](O)CN3Cc3ccc(Oc4ccccc4)cc3)O2)CC1 | . | -8.9 | . | . | .
Cc1cccc(S(=O)(=O)N(C)C[C@@H]2OCc3ccccc3-c3ccccc3C(=O)N([C@H](C)CO)C[C@@H]2C)c1 | . | 10.7 | . | . | .

Next part
SMILES | Pemphigus Ab inh | UUG fidelity | PABP polyA inh | eIF4H FP inh | PABP1 MLLE inh
COc1ccc(Cl)cc1CN1CCN(c2nc(C)cc(C)c2C#N)CC1 | ? | -13.4 | + | 45.9* | 2.0
CC(C)NC(=O)N(C)C[C@H]1Oc2ccc(NC(=O)Nc3cccc4ccccc34)cc2C(=O)N([C@@H](C)CO)C[C@@H]1C | . | -0.7 | . | . | .
O=C(CSc1nccc(=O)[nH]1)N1CCCc2ccccc21 | 86.9 | -12.5 | i | -6.3 | 38.1*
Cc1cc(=O)[nH]c(SCC(=O)N2CCCc3ccccc32)n1 | 99.9 | -8.1 | i | -5.0 | 24.0
CCCCn1c(N)c(N(CC(C)C)C(=O)c2ccncc2)c(=O)[nH]c1=O | 96.3 | . | . | . | -13.7
C=CCN1C(=O)c2ccc(C(=O)N(CC(C)C)c3c(N)n(CCCC)c(=O)[nH]c3=O)cc2C1=O | 75.6* | -15.4 | . | . | 8.0
CNC[C@@H]1Oc2cc(C#Cc3ccc(OC)cc3)ccc2S(=O)(=O)N([C@@H](C)CO)C[C@H]1C | . | 1.1 | . | . | .
CCC(=O)Oc1ccc(C(=O)Nc2cccc(C(=O)NC(C)(C)C)c2)cc1 | 86.7* | . | i | -3.5 | -6.3
CCCC(=O)Nc1ccc2c(c1)C(=O)N(C)[C@@H]1CC[C@@H](CC(=O)NCCc3ccncc3)O[C@H]1CO2 | . | -12.0 | . | . | .
Cc1cccc(OC(=O)n2c(=S)oc3cc(Cl)ccc32)c1 | 100.9 | -11.2 | + | ? | -75.0
CN(C)S(=O)(=O)c1ccc(C(=O)NC(=O)CSc2ccccc2)cc1 | 99.9 | . | i | 7.6 | 19.5
CC(=O)Nc1ccc(SCC(=O)NC(=O)c2ccc(S(=O)(=O)N(C)C)cc2)cc1 | 95.9 | -13.5 | . | . | 40.3*
